Laboratory results taken from US20140018340A1, “Insulin Mimetic Active Comprising Oxodiperoxo Vanadates and a Pharmaceutical Composition Obtained Thereof” (priority 2011, published 2014).

Experiments:
3T3-L1 preadipocytes [1] = experiment: Lipid content in adipocytes by oil red O staining; type: cell-based; settings: 3T3-L1, oil red O staining
[2] = test system: L6 skeletal muscles cell line; experiment: Glucose uptake using radiolabelled [3H]-2-deoxyglucose (2-DOG); type: cell-based
Fetuin-A = Fetuin-A secretion and expression
adipocytes = experiment: Fetuin-A mediated inhibition of adipocyte function
3T3-L1 preadipocytes [3] = experiment: Adipocyte differentiation from preadipocyte to mature adipocyte; settings: 5 μg/ml for 7 days
[4] = Stability studies of oxodiperoxo-dmpz-vanadates
[5] = test system: Glut4 in 3T3-L1 adipocytes; experiment: In vitro assay of Glut 4 translocation (GFP-Glut4 transfected cells); type: cell-based; settings: GFP-Glut4 transfected 3T3-L1 adipocytes
[6] = test system: insulin signaling pathway; experiment: Augmentation of upstream and downstream insulin signaling pathway; settings: 100 nM, same concentration as insulin, skeletal muscle and 3T3-L1 cell lines
[7] = test system: STZ treated diabetic rats; experiment: Glucose level in Streptozotocin (STZ) treated diabetic rats; settings: type 1 diabetes model
db/db mice = experiment: Blood glucose in type 2 diabetic db/db mice, oral administration; settings: 180 μg/day/animal, starting blood sugar around 600 mg/dl
C/EBPβ = experiment: Expression of adipogenic factor C/EBPβ
PPARγ = experiment: Expression of adipogenic factor PPARγ

In the case of DmpzH[VO(O2)2(dmpz)], the “lipid droplet size and numbers in adipocytes” value (3T3-L1 preadipocytes [1]) is reported as “significant increase in lipid droplet size and numbers”, the “fatty acid inhibition of insulin stimulation of 2-DOG uptake” value ([2]; L6 skeletal muscles cell line) is reported as “remains preserved” and the Dose in-vitro ([2]; dose level giving elevation of glucose uptake in skeletal muscle cells) is reported as 100 nM. The “palmitate stimulated Fetuin-A secretion” value (Fetuin-A) was “significantly reduced palmitate stimulated Fetuin-A secretion”, the “Fetuin-A induced decrease of lipid droplet size and numbers” value (adipocytes) was “strikingly prevented” and the “inhibitory activity of fetuin-A on lipid uptake” value (adipocytes) was “could be reduced effectively”. For the same substance, the “adipocyte differentiation from preadipocyte to mature adipocyte” value (3T3-L1 preadipocytes [3]; listed as [VO (O2)2 dmpz]) was “induced differentiation of preadipocyte to mature adipocytes”, the “adipocyte differentiation from preadipocyte to mature adipocyte” value (3T3-L1 preadipocytes [3]; listed as [VO(O2)2 (dmpz)]) was “induces adipocyte differentiation from preadipocyte to mature adipocyte far more efficiently than insulin” and the “time stable at 4° C.” value ([4]; 4° C.) was 6 months. For the same substance, the “time stable at room temperature” value ([4]; room temperature) was 10 days, the “Glut4 translocation from cytosol to membrane” value [5] was “alone translocated Glut4 to the membrane” and the “augmentation of insulin signaling pathway” value ([6]; listed as [VO (O2)2 dmpz]) was “significantly augmented both upstream and downstream insulin signaling pathway”. The “augmentation of insulin signaling pathway” value ([6]; listed as [VO(O2)2 dmpz]) was “augmented insulin receptor tyrosine phosphorylation”, the “glucose level in STZ diabetic rats” value [7] was “restored their normal glucose level” and the “blood glucose level in db/db mice” value (db/db mice) was “significantly reduces blood glucose level”. For the same substance, the “blood glucose level in db/db mice” value (db/db mice; listed as vanadium compound of the present invention) was “significantly reduced the blood glucose level (p<0.01)”, the “expression of C/EBPβ” value (C/EBPβ) was “significantly augmented” and the “expression of PPARγ” value (PPARγ; listed as [VO (O2)2 dmpz]) was “Over expression of PPARγ”. For the same substance, the “expression of PPARγ” value (PPARγ; listed as [VO(O2)2 (dmpz)]) was “significantly augmented”.
